# This is a selection; strong and weak results do not stand in their true shares. Some salts and complexes are drawn in separate pieces, as the source files them; their charges need not balance. Active and inactive are the calls of the source. Rule as the data show it: active = inhibition above about 50% (passing the limit was not always enough); inconclusive = no clear call, values can overlap the other calls; inactive = below about 31%.
# Test: blockers of Vif multimerization in cells – imaging, HEK293T, single point, primary screen (AID 602346)
# Conditions: Vif self-association by quenched fluorescence, 24 h, at 7.49 µM, stronger effect = higher value
row,Structure (SMILES),inhibition
1,O=[N+]([O-])c1cc([N+](=O)[O-])c(O)c([N+](=O)[O-])c1.c1ccc(Oc2ccncc2)cc1,inactive: -1.19%
2,CCOP(C)(=S)SCC(=O)NC(C)C(=O)O (stereo unspecified),inactive: 18.7%
3,CP(=O)(Nc1ccccn1)Oc1ccc(Cl)cc1 (stereo unspecified),inactive: 4.38%
4,Cc1ccc(Nc2c([N+](=O)[O-])cc([N+](=O)[O-])cc2[N+](=O)[O-])cc1,inactive: -0.254%
5,Cc1cccc(C)c1OP(C)(=O)Nc1ccc(SC(F)(F)F)cc1 (stereo unspecified),inactive: -3.09%
6,CP(=O)(Nc1ccc(SC(F)(F)F)cc1)Oc1ccc(Cl)cc1 (stereo unspecified),inactive: -8.69%
7,CP(=O)(Oc1ccccc1)OC(c1ccccc1)C(F)(F)F (stereo unspecified),inactive: -3.29%
8,CP(=O)(NC(=O)Nc1ccccc1)Oc1ccccc1 (stereo unspecified),inactive: 2.79%
9,CCc1ccc(OP(C)(=O)N2CCN(c3ccc([N+](=O)[O-])cc3)CC2)cc1 (stereo unspecified),inactive: -2.25%
10,CCN(CC)CCCOC(=O)C(O)(c1ccccc1)c1ccccc1,inactive: -2.34%
11,COc1ccccc1OP(C)(=O)Nc1ccc(C)cc1 (stereo unspecified),inactive: -5.41%
12,CCOC(=O)c1ccc(NP(C)(=O)Oc2ccccc2)cc1 (stereo unspecified),inactive: -17.8%
13,Cc1cc(C)cc(OP(C)(N)=O)c1 (stereo unspecified),inactive: -0.51%
14,COc1ccccc1OP(C)(=O)Nc1cc(Cl)ccc1C (stereo unspecified),inactive: -0.414%
15,COc1ccc(OP(C)(=O)Nc2cccc(F)c2)cc1 (stereo unspecified),inactive: 3.33%
16,O=[N+]([O-])c1cc([N+](=O)[O-])c(Nc2cccnc2)c([N+](=O)[O-])c1,inactive: -4.58%
17,O=[N+]([O-])c1ccc2c(c1)C=Nc1ccccc1O2,inactive: -0.973%
18,CC(C)(C)c1ccc(OP(C)(=O)Nc2ccc(SC(F)(F)F)cc2)cc1 (stereo unspecified),inactive: -0.952%
19,Cc1cccc(C)c1OP(C)(N)=O (stereo unspecified),inactive: -2.69%
20,CP(=O)(Nc1ccc(Cl)cc1Cl)Oc1ccccc1 (stereo unspecified),inactive: -11.9%
21,CCCCCCCCCCCCCCCC1C[N+](C)(C)CCOP(C)(=O)O1 (stereo unspecified),inactive: 2.59%
22,CP(=O)(OCCOc1ccccc1)OCCOc1ccccc1,inactive: 1.4%

row,Structure (SMILES),inhibition
1,O=C1C(O)=C([N+](=O)[O-])C(=O)C(O)=C1[N+](=O)[O-],inactive: 7.92%
2,Cc1cc(C)cc(OP(C)(=O)Nc2cccc(C(F)(F)F)c2)c1 (stereo unspecified),inactive: -0.199%
3,COc1ccccc1OP(C)(=O)Nc1ccc(C)c(C)c1 (stereo unspecified),inactive: -16.5%
4,COc1ccc(OP(C)(=O)Nc2ccccc2Br)cc1 (stereo unspecified),inactive: -1.32%
5,Cc1c(NP(C)(=O)Oc2ccc(C(C)C)cc2)c(=O)n(-c2ccccc2)n1C (stereo unspecified),inactive: -2.51%
6,O=[N+]([O-])c1cc([N+](=O)[O-])c(Nc2ccccn2)c([N+](=O)[O-])c1,inactive: -5.3%
7,CP(=O)(Nc1ccccn1)Oc1ccccc1 (stereo unspecified),inactive: 3.04%
8,COc1ccccc1OP(C)(=O)Nc1ccc(C)cc1C (stereo unspecified),inactive: -5.57%
9,CCc1ccc(OP(C)(=O)O)cc1,inactive: -9.93%
10,COc1ccccc1OP(C)(=O)Nc1ccc(Br)cc1 (stereo unspecified),inactive: -4.03%
11,COc1ccc(OP(C)(=O)Nc2ccccn2)cc1 (stereo unspecified),inactive: -4.79%
12,CN(C)CCOC(=O)C(O)(c1ccccc1)C1CCCC1 (stereo unspecified),inactive: 0.718%
13,COc1ccccc1OP(C)(=O)Nc1ccccc1Br (stereo unspecified),inactive: -5.65%
14,CC(C)(C)c1ccc(OP(C)(=O)O)cc1,inactive: 7.94%
15,CP(=O)(Nc1ccc(Cl)cc1)Oc1ccc(F)cc1 (stereo unspecified),inactive: -4.57%
16,CN(C)C(=O)c1c([N+](=O)[O-])cc([N+](=O)[O-])cc1[N+](=O)[O-],inactive: -5.23%
17,CCN(CC)CC(O)COC(=O)C(O)(c1ccccc1)C1CCCCC1 (stereo unspecified),inactive: 2.19%
18,COc1ccc(OP(C)(=O)Nc2ccc(Br)cc2)cc1 (stereo unspecified),inactive: -6.13%
19,O=C(OCCCN1CCCC1)C(O)(c1ccccc1)C1CCCCC1 (stereo unspecified),inactive: -0.27%
20,CP(=O)(Oc1ccccc1)N1CCOC1=O (stereo unspecified),inactive: -8.53%
21,CCc1ccc(OP(C)(=O)Nc2cccnc2)cc1 (stereo unspecified),inactive: 1.49%
22,CCOC(=O)c1ccc(NP(C)(=O)Oc2ccc(Cl)cc2)cc1 (stereo unspecified),inactive: -2.76%

row,Structure (SMILES),inhibition
1,CP(=O)(OC12CC3CC(CC(C3)C1)C2)OC12CC3CC(CC(C3)C1)C2,inactive: 6.42%
2,O=[N+]([O-])c1ccc(OP2(=O)COCCO2)cc1 (stereo unspecified),inactive: 1.39%
3,Cc1cc(-c2cccc3ccccc23)c(C)cn1.O=[N+]([O-])c1cc([N+](=O)[O-])c(O)c([N+](=O)[O-])c1,inactive: 10.5%
4,O=[N+]([O-])c1cc([N+](=O)[O-])c(NCC2CCS(=O)(=O)C2)c([N+](=O)[O-])c1 (stereo unspecified),inactive: 1.4%
5,Cc1c(C(c2ccc3c(c2)OCO3)c2c(C)n(C)n(-c3ccccc3)c2=O)c(=O)n(-c2ccccc2)n1C.O=[N+]([O-])c1cc([N+](=O)[O-])c(O)c([N+](=O)[O-])c1,inactive: -4.97%
6,COc1ccc(OP(C)(=O)Nc2cccc(Br)c2)cc1 (stereo unspecified),inactive: 14.4%
7,CN(C)CCOC(=O)C(O)(c1ccccc1)C1CCCCC1 (stereo unspecified),inactive: 18.5%
8,COc1ccc(NP(C)(=O)Oc2ccccc2OC)cc1 (stereo unspecified),inactive: 5.76%
9,Cc1ccccc1NP(C)(=O)Nc1ccccc1C,inactive: 17.6%
10,CP(=O)(Nc1ccc(SC(F)(F)F)cc1)Oc1ccc(F)cc1 (stereo unspecified),inactive: -2.39%
11,O=C(OC1CN2CCC1CC2)c1ccc([N+](=O)[O-])cc1 (stereo unspecified),inactive: 24.4%
12,O=C(OCCN1CCN(CCOCc2ccccc2)CC1)C(O)(c1ccccc1)c1ccccc1,inactive: -3.79%
13,COc1ccc2c(c1O)-c1c(O)c(OC)cc3c1[C@H](C2)[N+](C)(C)CC3.O=[N+]([O-])c1cc([N+](=O)[O-])c([O-])c([N+](=O)[O-])c1[O-],inactive: -5.44%
14,O=[N+]([O-])c1cc([N+](=O)[O-])c(Nc2ccc(Cl)cc2)c([N+](=O)[O-])c1,inactive: -10.8%
15,CP(=O)(Nc1ccccc1F)Oc1ccccc1 (stereo unspecified),inactive: 7.47%
16,CC(C)c1ccc(OP(C)(=O)Nc2ccc(SC(F)(F)F)cc2)cc1 (stereo unspecified),inactive: -6.99%
17,Cc1c([N+](=O)[O-])cc([N+](=O)[O-])c(Br)c1[N+](=O)[O-],inactive: 1.71%
18,CP(=O)(Nc1ccccc1)Oc1ccc(F)cc1 (stereo unspecified),inactive: 4.26%
19,O=[N+]([O-])c1cc([N+](=O)[O-])c(OC2CCCCC2O)c([N+](=O)[O-])c1 (stereo unspecified),inactive: -10.2%
20,CCCCCOc1ccc(NP(C)(=O)Oc2ccc(Cl)cc2Cl)cc1 (stereo unspecified),inactive: 9.01%
21,CCOC(=O)c1ccc(NP(C)(=O)Oc2ccc(F)cc2)cc1 (stereo unspecified),inactive: -2.5%
22,COc1ccc(OP(C)(=O)Nc2ccc(SC(F)(F)F)cc2)cc1 (stereo unspecified),inactive: -2.1%
